# Assay results published in PubChem BioAssay AID504326 (The Scripps Research Institute Molecular Screening Center, 2011).
# Chains of the proteins cited; added tags and fusions are not shown.
# UniProt P35372, whole entry, looked up: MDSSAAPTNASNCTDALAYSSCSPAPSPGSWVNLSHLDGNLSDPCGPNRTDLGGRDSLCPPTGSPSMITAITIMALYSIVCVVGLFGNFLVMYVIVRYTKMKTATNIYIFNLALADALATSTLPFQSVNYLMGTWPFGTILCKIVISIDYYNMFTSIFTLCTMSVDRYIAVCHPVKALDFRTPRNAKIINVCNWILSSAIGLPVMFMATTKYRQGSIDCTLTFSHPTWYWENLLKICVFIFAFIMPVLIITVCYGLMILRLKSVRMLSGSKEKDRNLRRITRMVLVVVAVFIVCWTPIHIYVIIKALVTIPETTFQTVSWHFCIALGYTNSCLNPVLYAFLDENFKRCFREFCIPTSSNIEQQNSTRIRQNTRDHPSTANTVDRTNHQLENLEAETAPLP
# UniProt P41143, whole entry, looked up: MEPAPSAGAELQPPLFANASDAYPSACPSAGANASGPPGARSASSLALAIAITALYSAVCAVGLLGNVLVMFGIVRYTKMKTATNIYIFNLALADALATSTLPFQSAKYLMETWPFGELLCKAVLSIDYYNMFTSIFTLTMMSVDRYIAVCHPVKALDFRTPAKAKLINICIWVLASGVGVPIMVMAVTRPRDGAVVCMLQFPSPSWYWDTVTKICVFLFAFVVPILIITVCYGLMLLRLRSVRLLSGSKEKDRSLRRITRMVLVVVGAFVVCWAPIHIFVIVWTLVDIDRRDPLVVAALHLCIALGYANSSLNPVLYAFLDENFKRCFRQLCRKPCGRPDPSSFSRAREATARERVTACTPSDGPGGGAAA
# The list shows a part of the results, in another mix than the full data. The source made the active and inactive calls. No stated cut-off is given here; in the data, active means activation above about 18%; inactive means the rest.
# Target: Mu-type opioid receptor (Homo sapiens) + Delta-type opioid receptor (Homo sapiens) (UniProt P35372+P41143)
# Assay: inducers of mu-delta opioid receptor heterodimers – cell-based, luminescence, primary screen (AID 504326);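 further: 0% = vehicle-treated cells and 100% = reference agonist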
# Conditions: cells, OPRM1-OPRD1 heterodimerization, at 9.3 µM, stronger effect = higher value
row,SMILES,activation
1,O=C(O)C1(Nc2ccccc2)CCN(Cc2ccccc2)CC1,inactive: 2.75%
2,CC(C)(C)OC(=O)N1CCC(Nc2ccccc2)CC1,inactive: -1.78%
3,CCCOc1ccc(C(=O)NCC2(N(C)C)CCCCC2)cc1,inactive: 4.32%
4,CN1CCC(Nc2ccc(F)c(Cl)c2)CC1,inactive: -1.69%
5,CCOc1ncccc1C(=O)NCC1(N2CCOCC2)CCCCC1,inactive: -1.53%
6,CN1CCC(Nc2ccc(Cl)cc2)CC1,inactive: -0.98%
7,COc1cccc(C(=O)N(c2cc(C)cc(C)c2)C2CCN(C(=O)OC(C)(C)C)CC2)c1,inactive: 5.27%
8,COc1cc(OC)cc(C(=O)NCC2(N3CCOCC3)CCCCC2)c1,inactive: 1.12%
9,CCC(CO)(C(=O)OC1CN2CCC1CC2)c1ccccc1 (centres undefined),inactive: 0.43%
10,Fc1ccccc1NC1CCN(Cc2ccccc2)CC1,inactive: -0.24%
11,Cc1ccc(C(=O)NCC2(N3CCCCC3)CCCCC2)o1,inactive: -1.68%
12,Cc1ccc(NC2(C#N)CCN(Cc3ccccc3)CC2)cc1,inactive: 0.35%
13,CC(=O)N(c1ccccc1)C1CCNCC1,inactive: -3.34%
14,COc1cc(OC)cc(C(=O)NCC2(N3CCCCC3)CCCCC2)c1,inactive: -0.35%
15,CN(C)c1ccc(C(=O)NCC2(N3CCCCC3)CCCCC2)cc1,inactive: -0.62%
16,Cn1c(=O)[nH]cc(N(CCCl)CCCl)c1=O,inactive: -2.28%
17,O=C(NCC1(N2CCCCC2)CCCCC1)c1ccco1,inactive: -2.23%
18,CCN1CCC(Nc2cccc(F)c2)CC1,inactive: 0.6%
19,Cc1ccccc1NC1(C#N)CCN(Cc2ccccc2)CC1,inactive: -2.86%
20,N#Cc1ccc(C(=O)NCC2(N3CCCCC3)CCCCC2)cc1,inactive: -1.02%
21,CC(C)(C)OC(=O)N1CCC(N(C(=O)c2ccccc2)c2ccc(Cl)cc2)CC1,inactive: 0.92%
22,CN(C)C1(CNC(=O)c2cccc(C#N)c2)CCCCC1,inactive: -2.35%
23,CCCN1CCC(Nc2cc(OC)cc(OC)c2)CC1,inactive: 2.27%
24,Cc1cc(N(CCCl)CCCl)ccc1C=O,inactive: -3.04%
25,c1ccc(CN2CCC(Nc3ccccc3)CC2)cc1,inactive: -0.94%

row,SMILES,activation
1,COc1ccc(C(=O)NCC2(N3CCOCC3)CCCCC2)cc1OC,inactive: -0.21%
2,COc1cc(C(=O)NCC2(N3CCOCC3)CCCCC2)cc(OC)c1C,inactive: 1.26%
3,O=C(NCC1(N2CCOCC2)CCCCC1)c1cc(Br)ccc1Cl,inactive: 5.97%
4,O=C(OC1CN2CCC1CC2)C1c2ccccc2C=Cc2ccccc21 (centres undefined),inactive: 1.25%
5,CCOC(=O)N1CCC(Nc2ccc(C)cc2)CC1,inactive: -2.81%
6,N/C(=N\O)c1c(N)no[n+]1[O-],inactive: -1.92%
7,O=C(NCC1(N2CCOCC2)CCCCC1)c1cc(F)c(F)cc1Cl,inactive: -0.46%
8,COc1cc(OC)c(C(=O)NCC2(N(C)C)CCCCC2)cc1OC,inactive: -2.33%
9,CC(C)c1ccc(NC2CCN(C(=O)OC(C)(C)C)CC2)cc1,inactive: 12.5%
10,CN(C)c1cccc(C(=O)NCC2(N3CCCCC3)CCCCC2)c1,inactive: 2.05%
11,COc1ccc(CN(CCCl)CCCl)cc1Cl,inactive: -1.44%
12,CCCOc1ccc(C(=O)NCC2(N(C)C)CCCCC2)cc1OC,inactive: 3.45%
13,CN1CCC(Nc2cccc(F)c2)CC1,inactive: -0.07%
14,O=C(NCC1(N2CCCCC2)CCCCC1)c1cncc(Br)c1,inactive: -1.89%
15,N#CC1(Nc2ccccc2)CCN(CCc2ccccc2)CC1,inactive: -1.76%
16,CCN1CCC(Nc2ccc(Cl)cc2)CC1,inactive: -2.62%
17,O=C(NCC1(N2CCCCC2)CCCCC1)c1cccc([N+](=O)[O-])c1,inactive: -2.24%
18,CSc1ccc(C(=O)NCC2(N3CCOCC3)CCCCC2)cc1,inactive: -0.15%
19,O=C(NCC1(N2CCCCC2)CCCCC1)c1ccc(OC(F)F)cc1,inactive: -1.66%
20,O=C(NCC1(N2CCOCC2)CCCCC1)c1cc(=O)[nH]c2ccccc12,inactive: 0.12%
21,COc1cc(C(=O)NCC2(N3CCCCC3)CCCCC2)ccc1OC(F)F,inactive: 1.34%
22,COc1ccc(NC2CCN(C(=O)OC(C)(C)C)CC2)cc1,inactive: -1.85%
23,CC(C)c1ccc(C(=O)NCC2(N3CCOCC3)CCCCC2)cc1,inactive: -0.65%
24,CN1CCN(CCOC(=O)C(O)(c2ccccc2)c2ccccc2)CC1,inactive: -2.53%
25,O=C(NCC1(N2CCCCC2)CCCCC1)c1cccc(C(F)(F)F)c1,inactive: -1.85%

row,SMILES,activation
1,CCOC(=O)N1CCC(Nc2ccc(F)cc2)CC1,inactive: -3.61%
2,COc1ccc(NC2CCN(CCc3ccccc3)CC2)c(OC)c1,inactive: 1.8%
3,CCCCOc1ccc(C(=O)NCC2(N3CCOCC3)CCCCC2)cc1,inactive: 0.57%
4,O=P1(N(CCCl)CCCl)SCCCS1,inactive: -1.24%
5,O=C(NCC1(N2CCCCC2)CCCCC1)c1ccc(F)cc1,inactive: -1.78%
6,O=C1CCN(Cc2ccccc2)CC1,inactive: 0.53%
7,CCOc1ccc(C)cc1CN(CCCl)CCCl,inactive: -1.6%
8,CCOC(=O)N1CCC(Nc2cccc(C)c2)CC1,inactive: -0.41%
9,COc1cc(C(=O)NCC2(N(C)C)CCCCC2)ccc1OC(F)F,inactive: 12.1%
10,Cc1cccc(NC2(C#N)CCN(Cc3ccccc3)CC2)c1,inactive: -0.77%
11,CSc1ccccc1C(=O)NCC1(N2CCCCC2)CCCCC1,inactive: -1.76%
12,COc1ccc(C(=O)NCC2(N3CCCCC3)CCCCC2)c(OC)c1OC,inactive: -1.26%
13,CC(C)(C)OC(=O)N1CCC(N(C(=O)c2ccccc2)c2ccc(F)cc2)CC1,inactive: -2.47%
14,COc1ccc(C(=O)NCC2(N3CCCCC3)CCCCC2)cc1,inactive: -1.66%
15,O=C(NCC1(N2CCCCC2)CCCCC1)c1cccs1,inactive: -1.57%
16,O=C(NCC1(N2CCCCC2)CCCCC1)c1ccc(=O)[nH]c1,inactive: -0.91%
17,COc1ccc(Cl)cc1C(=O)NCC1(N2CCOCC2)CCCCC1,inactive: -1.91%
18,O=C(NCC1(N2CCCCC2)CCCCC1)c1ccc(Cl)s1,inactive: -1.17%
19,N#CC1(Nc2ccccc2)CCN(Cc2ccccc2)CC1,inactive: -1.7%
20,O=C(OC1CN2CCC1CC2)C1c2ccccc2Oc2ccccc21 (centres undefined),inactive: 0.09%
21,CCOC(=O)N1CCC(Nc2ccc(OC)cc2)CC1,inactive: 0.34%
22,Cc1cc(C)cc(N(C(=O)c2ccccc2)C2CCN(C(=O)OC(C)(C)C)CC2)c1,inactive: 3.3%
23,O=C(NCC1(N2CCCCC2)CCCCC1)c1ccc(Cl)nc1,inactive: 0.28%
24,O=C(NCC1(N2CCOCC2)CCCCC1)c1cc2ccccc2o1,inactive: 0.5%
